# Experimental data published in patent US20160051697A1, “NANODELIVERY DEVICE FOR THERAPEUTIC LOADING OF CIRCULATING ERYTHROCYTES” (published 2016).
# Sequences of proteins named here, by UniProt entry; tags and fusion partners are left off. Residues count along the entry.
# UniProt P06276, 29-602 limits assumed: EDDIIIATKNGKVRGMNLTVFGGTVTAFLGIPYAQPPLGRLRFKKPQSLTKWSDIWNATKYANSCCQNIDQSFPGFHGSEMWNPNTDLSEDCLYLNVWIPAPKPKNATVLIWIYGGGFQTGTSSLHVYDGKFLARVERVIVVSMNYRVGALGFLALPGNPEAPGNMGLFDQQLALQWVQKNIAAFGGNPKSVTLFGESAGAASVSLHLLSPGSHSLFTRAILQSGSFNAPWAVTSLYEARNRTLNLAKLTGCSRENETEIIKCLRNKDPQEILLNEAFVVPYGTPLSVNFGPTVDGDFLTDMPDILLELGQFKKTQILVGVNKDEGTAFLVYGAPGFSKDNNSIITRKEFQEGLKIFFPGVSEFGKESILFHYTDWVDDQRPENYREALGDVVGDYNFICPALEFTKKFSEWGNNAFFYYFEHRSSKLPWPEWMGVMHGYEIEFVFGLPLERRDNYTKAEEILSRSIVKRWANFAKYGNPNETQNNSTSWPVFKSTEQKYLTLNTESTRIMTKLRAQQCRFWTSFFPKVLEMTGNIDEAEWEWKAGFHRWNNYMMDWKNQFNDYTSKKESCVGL
# Assays:
# [1] = Dialysis across a 300 kDa membrane; settings: dialyzed 8 hours in PBS containing 0.5 mg/ml BSA
# [2] = cited from earlier work
# [3] = high dose BChE administration; cited from earlier work
# [4] = cited from earlier work; remark: listed apart in the source
# [5] = cited from earlier work; remark: listed apart in the source
# BChE = BChE (Homo sapiens, UniProt P06276); assay: Interaction of paraoxon with free and nano-encapsulated butyrylcholinesterase; settings: varying paraoxon concentrations, 20 minutes at 37° C., butyrythiocholine 1 mM
# [6] = mice, im 13 mg/kg (about 0.3 mg)
substance,measurement,setting,value
butyrylcholinesterase,passage across 300 kDa dialysis membrane,[1],passes across the membrane more readily than the low molecular weight polymer particles
same,long-term stability of lyophilized enzyme,[2],at least 2 years
same,"adverse effects (signs, serum chemistry, histopathology)",[3],"No overt physiological or behavioral signs, changes in serum chemistry, or tissue histopathology"
same,share of peak levels still present at 70 hours,[4]; [6],about 25%
same,time of peak blood BChE activities,[4]; [6],10 to 12 h
same,time at which levels were back to near baseline,"[4]; mice, im or ip 0.1-3 mg",≤ 120 h
same,time of peak circulating BChE enzyme activity,"[4]; mice, im or ip 0.1-3 mg",12 to 24 h
same,half-life,"[4]; mouse, parenteral administration",67 h
same,time over which >90% is cleared from the circulation,[4]; parenteral administration,200 h
same,time blood BChE activity remained elevated,[5]; IV 30 mg/kg,100 h
same,time of peak enzyme levels,"[5]; higher im dosages, up to 60 mg/kg",around 24 hours
same,duration of substantial circulating BChE activity,"[5]; im, highest dosage (60 mg/kg)",at least four days
same,inhibition of BChE activity by paraoxon,BChE,similarly inhibited in a concentration-dependent manner
